Laboratory results: ChEMBL document CHEMBL5728797, “Pyrrolopyrimidine derivatives as TAM inhibitors” (2021)

Amino acid sequences for entries named in this document (tags omitted). A change or cut given only in a name is not applied to a line headed by its entry.
UniProt P23458: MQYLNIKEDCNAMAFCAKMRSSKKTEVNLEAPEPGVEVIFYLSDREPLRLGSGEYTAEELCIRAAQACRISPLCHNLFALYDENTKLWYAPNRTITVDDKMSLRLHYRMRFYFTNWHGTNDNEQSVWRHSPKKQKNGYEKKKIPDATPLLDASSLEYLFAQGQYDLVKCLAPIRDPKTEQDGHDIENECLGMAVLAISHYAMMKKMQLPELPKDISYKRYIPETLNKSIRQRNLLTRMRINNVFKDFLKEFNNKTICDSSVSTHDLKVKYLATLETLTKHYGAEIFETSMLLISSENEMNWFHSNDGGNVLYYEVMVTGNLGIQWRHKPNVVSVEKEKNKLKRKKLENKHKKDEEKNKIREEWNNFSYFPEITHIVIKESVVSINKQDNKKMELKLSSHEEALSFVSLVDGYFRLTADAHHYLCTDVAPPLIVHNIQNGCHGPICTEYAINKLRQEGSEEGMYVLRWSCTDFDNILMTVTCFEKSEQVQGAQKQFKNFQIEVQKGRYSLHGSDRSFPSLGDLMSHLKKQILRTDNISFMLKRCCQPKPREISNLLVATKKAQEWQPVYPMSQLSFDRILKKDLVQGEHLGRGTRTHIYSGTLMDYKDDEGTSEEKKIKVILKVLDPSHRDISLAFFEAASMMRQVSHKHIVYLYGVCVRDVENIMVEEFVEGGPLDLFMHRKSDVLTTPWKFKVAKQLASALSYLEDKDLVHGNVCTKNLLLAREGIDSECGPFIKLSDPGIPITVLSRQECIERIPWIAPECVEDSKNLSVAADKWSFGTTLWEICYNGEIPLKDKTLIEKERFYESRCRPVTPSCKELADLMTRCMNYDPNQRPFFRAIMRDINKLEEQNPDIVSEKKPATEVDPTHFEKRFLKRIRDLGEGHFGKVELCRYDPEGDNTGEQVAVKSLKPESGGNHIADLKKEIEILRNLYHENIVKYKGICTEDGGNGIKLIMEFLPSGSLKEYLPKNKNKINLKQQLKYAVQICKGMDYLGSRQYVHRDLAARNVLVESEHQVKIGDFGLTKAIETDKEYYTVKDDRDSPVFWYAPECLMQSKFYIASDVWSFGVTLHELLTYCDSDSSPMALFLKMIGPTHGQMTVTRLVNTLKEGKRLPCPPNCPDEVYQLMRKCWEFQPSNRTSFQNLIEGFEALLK

Target: Tyrosine-protein kinase JAK1 (Homo sapiens, UniProt P23458)

Compound: CN(C)Cc1cc(F)cc(OC2CCN(CC(CC#N)n3cc(-c4ncnc5[nH]ccc45)cn3)CC2)c1 (single isomer, unassigned)
- IC50: < 10 nM
